What was measured:
Cannabinoid receptor 1 [1] = molecular target: T1, Cannabinoid receptor 1 (Rattus norvegicus, UniProt P20272); assay: Displacement of [3H]CP-55,940 from CB1 receptor in rat brain membranes in absence of FAAH inhibitor PMSF by radioligand binding assay; type: cell membranes, Membrane
Summary of the method: (§1)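 Rat brain membranes, tested either pretreated with PMSF to block amidase activity or untreated, competing against [3H]CP-55,940. IC50 by nonlinear regression, converted to Ki. Three independent experiments run in triplicate; Ki is the mean of the three. Untreated-membrane incubation 1 h at 30 °C.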

The chains behind the UniProt entries cited, without tags or fusion partners.
UniProt P20272, whole entry: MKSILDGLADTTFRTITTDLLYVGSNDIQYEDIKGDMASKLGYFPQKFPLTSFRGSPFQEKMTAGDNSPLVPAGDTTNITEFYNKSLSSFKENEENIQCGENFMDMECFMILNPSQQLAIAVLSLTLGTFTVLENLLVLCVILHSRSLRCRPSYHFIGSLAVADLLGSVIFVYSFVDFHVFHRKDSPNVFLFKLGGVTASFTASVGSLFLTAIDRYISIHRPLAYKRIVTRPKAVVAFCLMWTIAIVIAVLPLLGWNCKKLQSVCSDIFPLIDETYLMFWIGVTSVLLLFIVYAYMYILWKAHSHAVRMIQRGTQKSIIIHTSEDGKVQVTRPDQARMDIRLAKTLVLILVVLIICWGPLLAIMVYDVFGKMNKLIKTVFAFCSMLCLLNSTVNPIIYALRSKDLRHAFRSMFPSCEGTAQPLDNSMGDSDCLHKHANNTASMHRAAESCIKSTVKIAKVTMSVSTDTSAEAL

Cannabinoid receptor 1 [2] = molecular target: T1, Cannabinoid receptor 1; assay: Displacement of [3H]CP-55,940 from CB1 receptor in rat brain membranes in presence of FAAH inhibitor PMSF by radioligand binding assay; type: cell membranes, Membrane; summary of the method: as §1
Cannabinoid receptor 1 [3] = molecular target: T1, Cannabinoid receptor 1; assay: Agonist activity at rat CB1 receptor expressed in HEK293 cells assessed as inhibition of forskolin-induced cAMP accumulation incubated for 30 mins; type: functional, cell-based
Summary of the method: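 HEK293 cells stably expressing rCB1, harvested with nonenzymatic dissociation reagent, washed in HBSS, 1000–1500 cells/well. Test compound at various concentrations with forskolin (2 μM final) in stimulation buffer, 30 min at room temperature. cAMP read by TR-FRET (Eu-cAMP tracer plus ULight anti-cAMP, 60 min room temperature). Forskolin-stimulated cAMP set to 100%. EC50 from nonlinear regression; two independent experiments in triplicate.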

SMILES	Ki (Cannabinoid receptor 1 [1]) [nM]	Ki (Cannabinoid receptor 1 [2]) [nM]	EC50 (Cannabinoid receptor 1 [3]) [nM]
CCCCC/C=C\C/C=C\C/C=C\C/C=C\CCCC(=O)N[C@H](C)CO [METHANANDAMIDE]	72	37	
CCCCC/C=C\C/C=C\C/C=C\C/C=C\CCCC(=O)NCCO [ANANDAMIDE]	> 1000	74	69

From ChEMBL document CHEMBL4196195, “( R)- N-(1-Methyl-2-hydroxyethyl)-13-( S)-methyl-arachidonamide (AMG315): A Novel Chiral Potent Endocannabinoid Ligand with Stability to Metabolizing Enzymes” (J Med Chem, 2018)
